Values quoted from earlier work as cited in US20230312752A1 (Brown University, priority 2021, published 2023).

Molecular target: CDK2 (Homo sapiens, UniProt P24941)
Design: key to the marks not given beside the values
Conditions: cited from earlier work

## Purvalanol A
  Inhibitory potency CDK2: +++
